Literature values in patent US9687493B2, “Use of NK-1 receptor antagonists for treating hypomagnesemia, neurogenic inflammation, and cardiac dysfunction associated with EGFR-blocking drugs” (THE GEORGE WASHINGTON UNIVERSITY, priority 2014, dated 2017).

Conditions: cited from earlier work

For cetuximab, the “fractional excretion of magnesium” value (patients treated with cetuximab) is listed as “increased” and the “hypomagnesemia in treated patients” value (patients with colorectal cancer, monoclonal antibodies targeting the EGFR) is listed as “pronounced hypomagnesemia”.
